# From US20250213563A1, “SUBSTITUTED PYRIMIDIN-4(3H)-ONES FOR USE IN TREATING CANCER” (NAVIRE PHARMA, INC., priority 2021, published 2025)
# Sequences of proteins named here, by UniProt entry; tags and fusion partners are left off. A change or cut given only in a name is not applied to a line headed by its entry.
# UniProt Q12809: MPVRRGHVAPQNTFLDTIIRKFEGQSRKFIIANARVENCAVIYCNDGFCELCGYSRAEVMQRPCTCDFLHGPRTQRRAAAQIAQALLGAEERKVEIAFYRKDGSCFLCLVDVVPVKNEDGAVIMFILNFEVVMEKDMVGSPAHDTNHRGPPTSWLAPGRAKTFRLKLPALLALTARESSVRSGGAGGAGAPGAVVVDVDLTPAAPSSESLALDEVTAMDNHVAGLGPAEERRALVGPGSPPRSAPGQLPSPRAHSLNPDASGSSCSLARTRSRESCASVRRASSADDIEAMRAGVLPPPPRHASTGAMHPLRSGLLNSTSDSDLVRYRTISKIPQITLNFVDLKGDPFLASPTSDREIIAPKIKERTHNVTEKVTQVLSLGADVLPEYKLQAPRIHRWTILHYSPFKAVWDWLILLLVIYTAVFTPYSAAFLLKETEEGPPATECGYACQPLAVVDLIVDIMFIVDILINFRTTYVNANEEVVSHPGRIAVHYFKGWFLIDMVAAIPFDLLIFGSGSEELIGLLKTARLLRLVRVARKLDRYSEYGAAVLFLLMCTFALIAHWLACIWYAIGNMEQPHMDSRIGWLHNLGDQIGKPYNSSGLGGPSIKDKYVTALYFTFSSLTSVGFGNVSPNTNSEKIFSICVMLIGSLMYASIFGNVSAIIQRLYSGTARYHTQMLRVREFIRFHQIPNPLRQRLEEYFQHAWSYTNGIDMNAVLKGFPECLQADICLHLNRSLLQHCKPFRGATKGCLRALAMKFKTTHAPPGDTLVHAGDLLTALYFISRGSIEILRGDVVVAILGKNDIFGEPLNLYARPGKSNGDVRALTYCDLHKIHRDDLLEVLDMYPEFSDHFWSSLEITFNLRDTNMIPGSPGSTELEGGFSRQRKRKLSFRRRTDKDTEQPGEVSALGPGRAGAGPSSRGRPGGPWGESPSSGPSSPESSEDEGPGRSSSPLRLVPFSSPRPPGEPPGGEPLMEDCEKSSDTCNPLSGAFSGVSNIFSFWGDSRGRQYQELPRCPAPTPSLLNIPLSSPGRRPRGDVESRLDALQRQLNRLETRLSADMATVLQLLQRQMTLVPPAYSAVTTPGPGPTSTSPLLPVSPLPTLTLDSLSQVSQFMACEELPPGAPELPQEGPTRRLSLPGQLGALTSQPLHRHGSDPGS
# Biological target: hERG potassium channel (Homo sapiens, UniProt Q12809)
# Details: 0.1 μM
structure (smiles),measurement,value
COc1cc(N)c(Cl)cc1C(=O)NC1CCN(CCCOc2ccc(F)cc2)CC1OC (stereo not shown) [cisapride],inhibition of hERG current,> 50%
